{
  "source": "patent US20250051330A1",
  "about": "“HETEROCYCLIC COMPOUND HAVING ANTI-TUMOR ACTIVITY AND USE THEREOF” (CSPC Zhongqi Pharmaceutical Technology (Shijiazhuang) Co., …, priority 2021, published 2025)",
  "key": {"[1]": {"tested_on": "NCI-H358 cells", "test": "3D cell proliferation inhibition assay (CellTiter-Glo 3D)", "assay_type": "cell-based", "details": "read-out: Activity by IC50 (nM), inhibitory activity against NCI-H358 cell proliferation; NCI-H358 (KRAS G12C-mutated NSCLC), 3D culture, CTG 3D read on Day 8", "text": "The cell proliferation inhibition assay was used to determine the abilities of compounds to inhibit the proliferation and growth of SOS1-mediated tumor cells at the in vitro 3D cellular level. The CellTiter-Glo® 3D Cell Viability Assay was employed.\n• NCI-H358: KRAS G12C-mutated non-small cell lung cancer (NSCLC); • CellTiter-Glo® 3D Cell Viability Assay, Promega, G9683; • RPMI 1640 medium, Gibco, A10491-01; • FBS, Gibco, 10099141C.\n• Day 1: NCI-H358 cells were passaged into a T75 cell culture flask. • Day 3: the medium was removed; the cells were rinsed once with DPBS, and digested at room temperature or at 37° C. using 2 mL of TrypLE™ Express Enzyme until the cells were detached; the resultant was added with 5 mL of fresh medium, and centrifuged at 1000 rpm for 5 min; the supernatant was discarded, and 5 mL of fresh medium was added to resuspend the cells; the cells were counted and then seeded at 40 μL/well in a 3D cell culture plate (Echo Qualified 384-Well Polypropylene Microplate 2.0, Clear, Flat Bottom). […]"}, "[2]": {"biological_target": "K-Ras^G12D and hSOS1 (Homo sapiens, UniProt Q07889)", "test": "K-Ras G12D and hSOS1 binding assay (HTRF)", "details": "read-out: Activity by IC50 (nM), SOS1 inhibitory activity; inhibition of binding of K-Ras G12D to hSOS1, HTRF", "protocol": "1. K-Ras^G12D and hSOS1 Binding Assay\nThis assay could be used to examine the potency of the compounds to inhibit the protein-protein interaction between SOS1 and KRAS G12D. The binding of anti-GSK-Europium (FRET donor)-conjugated GST-KRas^G12D to anti-6His-XL665-conjugated His-tagged hSOS1 ([…]) was detected by homogeneous time-resolved fluorescence (HTRF), and the inhibitory effects of the compounds on the binding of K-Ras^G12D to hSOS1 were determined.\n• Buffer (5 mM HEPES pH 7.4, 150 mM NaCl, 10 mM EDTA, 1 mM DTT, 0.05% BAS pH 7.0, 0.0025% 1gepal, and 100 mM KF); • GST-tagged hK-RasG12D (produced in-house); • His-tagged hSOS1 (produced in-house);\n• 10 nM (final concentration) GST-hK-RasG12D and 2 nM (final concentration) anti-GSK-Europium in assay buffer were mixed, and set aside at room temperature.\n• 20 nM (final concentration) His-tagged hSOS1 and 10 nM (final concentration) anti-6His-XL665 in assay buffer were mixed, and set aside at room temperature.\nThe test compound was dissolved in DMSO at a concentration of 100 times the assay concentration. 50 nL of the solution of compound was pipetted by Hummingbird liquid handler or Echo acoustic system to a black microassay plate.\nAll the experimental steps were conducted at 20° C. […]\nThe IC50 values were calculated and analyzed using a four-parameter logistic regression model."}},
  "data": [
    {"compound": "Cc1nc(N[C@H](C)c2cccc(C(F)(F)F)c2)c2c(n1)N1CCN=C1C(c1ccn(C)c(=O)c1)=C2", "values": [
      {"measurement": "IC50", "setting": "[1]", "value": "< 50", "unit": "nM"},
      {"measurement": "IC50", "setting": "[2]", "value": "10 to 50", "unit": "nM"}
    ]}
  ]
}
